For one substance, temperature stability results are on record in US20230228656A1, “Functionalized Blood Sampling Device and Method for PEth Measurement” (CAPITAINER AB, priority 2020, published 2023).

This series can be described thus: Resistance of the salts to the temperature during production.

On to sodium metavanadate [NaVO3], for which the temperature stability entry is listed as “withstand the temperature during production”.
